Measurements taken from patent publication US20230270817A1, “VIMENTIN INHIBITORS” (Filamon Pty Ltd, priority 2020, published 2023).

By UniProt entry, the sequences of proteins in these tests, tags left out. Residues count along the entry.
UniProt P08670, 96-253: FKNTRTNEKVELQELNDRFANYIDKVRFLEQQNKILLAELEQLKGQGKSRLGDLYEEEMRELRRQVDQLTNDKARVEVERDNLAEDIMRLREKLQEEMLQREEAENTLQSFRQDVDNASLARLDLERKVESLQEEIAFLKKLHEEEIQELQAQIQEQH
UniProt P08670, 254-405: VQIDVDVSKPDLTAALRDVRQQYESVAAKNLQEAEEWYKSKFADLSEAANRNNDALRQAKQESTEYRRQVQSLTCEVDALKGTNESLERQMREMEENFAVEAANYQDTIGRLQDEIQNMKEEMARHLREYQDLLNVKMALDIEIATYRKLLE
UniProt P08670, whole entry: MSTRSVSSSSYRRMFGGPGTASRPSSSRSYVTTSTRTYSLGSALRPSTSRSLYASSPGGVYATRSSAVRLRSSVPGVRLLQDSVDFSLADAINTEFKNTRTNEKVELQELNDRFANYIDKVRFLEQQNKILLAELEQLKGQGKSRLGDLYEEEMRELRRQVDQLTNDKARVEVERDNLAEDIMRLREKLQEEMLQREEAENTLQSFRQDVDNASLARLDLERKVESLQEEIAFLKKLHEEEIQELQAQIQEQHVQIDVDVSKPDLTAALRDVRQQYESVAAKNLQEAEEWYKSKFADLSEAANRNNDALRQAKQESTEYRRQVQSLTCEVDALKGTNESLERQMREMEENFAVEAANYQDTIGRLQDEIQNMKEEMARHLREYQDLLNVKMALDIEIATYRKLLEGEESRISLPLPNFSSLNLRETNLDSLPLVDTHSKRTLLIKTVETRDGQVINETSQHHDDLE

Key:
[1] = molecular target: T1, hGIIA (Homo sapiens, UniProt P14555); test: Affinity of radiolabelled c2 to immobilised proteins: hGIIA; format: binding; conditions: 50 μM [3H]c2, 37° C., 60 min, scintillation counting, FIG. 2C
T1 construct: made in house
T1 sequence (P14555 21-144): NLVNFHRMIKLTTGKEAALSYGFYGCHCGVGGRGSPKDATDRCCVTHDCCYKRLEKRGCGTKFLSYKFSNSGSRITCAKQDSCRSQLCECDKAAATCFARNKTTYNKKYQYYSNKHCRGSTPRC
Description: (§1) To an Isoplate 96-well microplate with white wall and flat clear bottoms (PerkinElmer), 100 μL of either hGIIA, vimentin full length, coil 1 or 2 prepared in PBS to 40 μg/mL concentration or PBS without any proteins, was added, each in triplicate wells. The plate was covered with a lid and incubated at 4° C. overnight. The plate was emptied and blocked by adding 200 μL of 1% BSA in PBS into each well. The plated was covered with a lid and incubated at 4° C. for at least overnight. The plate was emptied and washed with 200 μL/well of PBST (containing 0.05% Tween-20) five times. The 2 mg/mL stock solution of [3H]c2 compound (SibTech, Brookfield, Conn., USA) was diluted to 50 μM in PBS and 30 μL of the prepared solution was added to each well. The plate was sealed and incubated at 37° C. for 60 min. The plate was emptied and washed with PBST five times. Ultima Gold XR scintillation fluid (PerkinElmer, Waltham, Mass., USA) was added to the washed plate (100 μL/well). The plate was sealed with a clear film and measured using a Microbeta2 scintillation counter (PerkinElmer), with default settings optimised for 3H detection.

[2] = molecular target: T2, coil 1 of vimentin (Homo sapiens, UniProt P08670); test: Affinity of radiolabelled c2 to immobilised proteins: vimentin coil 1; format: binding; conditions: 50 μM [3H]c2, 37° C., 60 min, in the absence of hGIIA, FIG. 2C
T2 construct: His6 tag (HHHHHH) from pET15b (N); thrombin cleavage site (LVPRGS) (N); made in house; host or cells: Rosetta 2 E. coli, pET15b; Ni-NTA under non-denaturing conditions
Description: as §1

[3] = molecular target: T3, coil 2 of vimentin (Homo sapiens, UniProt P08670); test: Affinity of radiolabelled c2 to immobilised proteins: vimentin coil 2; format: binding; conditions: 50 μM [3H]c2, 37° C., 60 min, in the absence of hGIIA, FIG. 2C
T3 construct: His6 tag (HHHHHH) from pET15b (N); thrombin cleavage site (LVPRGS) (N); made in house; host or cells: Rosetta 2 E. coli, pET15b; Ni-NTA under non-denaturing conditions
Description: as §1

[4] = molecular target: T4, vimentin full length (Homo sapiens, UniProt P08670); test: Affinity of radiolabelled c2 to immobilised proteins: vimentin full length; format: binding; conditions: 50 μM [3H]c2, 37° C., 60 min, in the absence of hGIIA, FIG. 2C
T4 construct: His6 tag (HHHHHH) from pET15b (N); thrombin cleavage site (LVPRGS) (N); made in house; host or cells: Rosetta 2 E. coli, pET15b; Ni-NTA under denaturing conditions (8 M urea)
Description: as §1

[5] = molecular target: T5, hGIIA binding to full length vimentin (Homo sapiens, UniProt P08670); test: Colorimetric enzyme immunoassay (EIA) of inhibitor effect on the hGIIA-vimentin interaction, full length vimentin; conditions: immobilised full length vimentin, hGIIA 250 ng/mL, inhibitors 5-100 μM, FIG. 2B top panel
T5 construct: His6 tag (HHHHHH) from pET15b (N); thrombin cleavage site (LVPRGS) (N); made in house; host or cells: vimentin: Rosetta 2 E. coli (pET15b)
Description: The effect of inhibitors on the hGIIA-vimentin interaction was measured with a colorimetric enzyme immunoassay (EIA), using a similar protocol to the hGIIA ELISA method. Purified vimentin protein solutions (full length, coil 1 or coil 2 fragments) were diluted to 10-20 μg/mL concentration in PBS and seeded to a 96-well microplate with a 100 μL/well volume. After an overnight incubation at 4° C., the plate was emptied. Each well was then blocked with 200 μL of 1% BSA in PBS. The blocked plate was incubated for at least an overnight period at 4° C. and used within 1 week.
The hGIIA solution was prepared with or without inhibitors. For testing the hGIIA binding to vimentin, samples of the hGIIA solution were prepared in a range of 5-1000 ng/mL in PBS with 0.1% BSA, without any inhibitors. The PBS buffer with 0.1% BSA without any hGIIA served as a control. For testing the efficacy of the inhibitors, stock solutions of the inhibitors prepared in DMSO were step diluted in DMSO and added to the solution of purified hGIIA (250 ng/mL, in PBS with 0.1% BSA) to the final concentrations between 5-100 μM. […]
The AP substrate PNPP powder was dissolved in carbonate buffer to 1 mg/mL concentration. […] The prepared PNPP solution was added (100 μL/well) and the plates were incubated at 37° C. for up to 60 minutes and the absorbance at 405 nm was read by a Victor X4 plate reader at 15-minute intervals.

Row | Substance | binding of 3H-labelled c2 to immobilised hGIIA [1] | binding of 3H-labelled c2 to immobilised coil 1 of vimentin [2] | binding of 3H-labelled c2 to immobilised coil 2 of vimentin [3] | binding of 3H-labelled c2 to immobilised full-length vimentin [4] | inhibition of hGIIA binding to full length vimentin [5]
1 | 3H-labelled c2: radiolabelled c2 compound (SibTech) | binds weakly | not to coil 1 | more strongly | more strongly | –
2 | cyclo-((2-Nal)-Leu-Ser-(2-Nal)-Arg) [c2] | – | – | – | – | greater inhibition of hGIIA binding to full length vimentin than LY311727
